Only a part of the results on these compounds is given; other tests are left out.
Experiments:
Cytochrome P450 2D6 = Cytochrome P450 2D6 (Homo sapiens, UniProt P10635)
[1] = target: Sodium channel alpha subunits; brain (Types I, II, III) (Rattus norvegicus, UniProt P04775+P04774+P08104); conditions: Cerebral cortex

Amino acid sequences for entries named in this document (tags omitted).
UniProt P10635, whole entry: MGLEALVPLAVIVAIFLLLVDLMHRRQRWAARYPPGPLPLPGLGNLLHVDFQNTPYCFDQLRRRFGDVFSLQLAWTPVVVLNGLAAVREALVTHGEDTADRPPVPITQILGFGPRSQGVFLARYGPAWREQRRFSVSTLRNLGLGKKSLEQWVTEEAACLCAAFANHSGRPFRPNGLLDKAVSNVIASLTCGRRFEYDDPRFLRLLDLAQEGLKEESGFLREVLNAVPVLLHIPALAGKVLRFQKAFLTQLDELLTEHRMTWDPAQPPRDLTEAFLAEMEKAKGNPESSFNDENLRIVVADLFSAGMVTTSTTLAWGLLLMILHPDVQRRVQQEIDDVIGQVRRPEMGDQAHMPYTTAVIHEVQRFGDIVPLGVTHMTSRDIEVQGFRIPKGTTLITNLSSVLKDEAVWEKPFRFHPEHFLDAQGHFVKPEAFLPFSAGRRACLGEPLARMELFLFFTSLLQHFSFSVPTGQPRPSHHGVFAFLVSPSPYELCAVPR
UniProt P04775, whole entry: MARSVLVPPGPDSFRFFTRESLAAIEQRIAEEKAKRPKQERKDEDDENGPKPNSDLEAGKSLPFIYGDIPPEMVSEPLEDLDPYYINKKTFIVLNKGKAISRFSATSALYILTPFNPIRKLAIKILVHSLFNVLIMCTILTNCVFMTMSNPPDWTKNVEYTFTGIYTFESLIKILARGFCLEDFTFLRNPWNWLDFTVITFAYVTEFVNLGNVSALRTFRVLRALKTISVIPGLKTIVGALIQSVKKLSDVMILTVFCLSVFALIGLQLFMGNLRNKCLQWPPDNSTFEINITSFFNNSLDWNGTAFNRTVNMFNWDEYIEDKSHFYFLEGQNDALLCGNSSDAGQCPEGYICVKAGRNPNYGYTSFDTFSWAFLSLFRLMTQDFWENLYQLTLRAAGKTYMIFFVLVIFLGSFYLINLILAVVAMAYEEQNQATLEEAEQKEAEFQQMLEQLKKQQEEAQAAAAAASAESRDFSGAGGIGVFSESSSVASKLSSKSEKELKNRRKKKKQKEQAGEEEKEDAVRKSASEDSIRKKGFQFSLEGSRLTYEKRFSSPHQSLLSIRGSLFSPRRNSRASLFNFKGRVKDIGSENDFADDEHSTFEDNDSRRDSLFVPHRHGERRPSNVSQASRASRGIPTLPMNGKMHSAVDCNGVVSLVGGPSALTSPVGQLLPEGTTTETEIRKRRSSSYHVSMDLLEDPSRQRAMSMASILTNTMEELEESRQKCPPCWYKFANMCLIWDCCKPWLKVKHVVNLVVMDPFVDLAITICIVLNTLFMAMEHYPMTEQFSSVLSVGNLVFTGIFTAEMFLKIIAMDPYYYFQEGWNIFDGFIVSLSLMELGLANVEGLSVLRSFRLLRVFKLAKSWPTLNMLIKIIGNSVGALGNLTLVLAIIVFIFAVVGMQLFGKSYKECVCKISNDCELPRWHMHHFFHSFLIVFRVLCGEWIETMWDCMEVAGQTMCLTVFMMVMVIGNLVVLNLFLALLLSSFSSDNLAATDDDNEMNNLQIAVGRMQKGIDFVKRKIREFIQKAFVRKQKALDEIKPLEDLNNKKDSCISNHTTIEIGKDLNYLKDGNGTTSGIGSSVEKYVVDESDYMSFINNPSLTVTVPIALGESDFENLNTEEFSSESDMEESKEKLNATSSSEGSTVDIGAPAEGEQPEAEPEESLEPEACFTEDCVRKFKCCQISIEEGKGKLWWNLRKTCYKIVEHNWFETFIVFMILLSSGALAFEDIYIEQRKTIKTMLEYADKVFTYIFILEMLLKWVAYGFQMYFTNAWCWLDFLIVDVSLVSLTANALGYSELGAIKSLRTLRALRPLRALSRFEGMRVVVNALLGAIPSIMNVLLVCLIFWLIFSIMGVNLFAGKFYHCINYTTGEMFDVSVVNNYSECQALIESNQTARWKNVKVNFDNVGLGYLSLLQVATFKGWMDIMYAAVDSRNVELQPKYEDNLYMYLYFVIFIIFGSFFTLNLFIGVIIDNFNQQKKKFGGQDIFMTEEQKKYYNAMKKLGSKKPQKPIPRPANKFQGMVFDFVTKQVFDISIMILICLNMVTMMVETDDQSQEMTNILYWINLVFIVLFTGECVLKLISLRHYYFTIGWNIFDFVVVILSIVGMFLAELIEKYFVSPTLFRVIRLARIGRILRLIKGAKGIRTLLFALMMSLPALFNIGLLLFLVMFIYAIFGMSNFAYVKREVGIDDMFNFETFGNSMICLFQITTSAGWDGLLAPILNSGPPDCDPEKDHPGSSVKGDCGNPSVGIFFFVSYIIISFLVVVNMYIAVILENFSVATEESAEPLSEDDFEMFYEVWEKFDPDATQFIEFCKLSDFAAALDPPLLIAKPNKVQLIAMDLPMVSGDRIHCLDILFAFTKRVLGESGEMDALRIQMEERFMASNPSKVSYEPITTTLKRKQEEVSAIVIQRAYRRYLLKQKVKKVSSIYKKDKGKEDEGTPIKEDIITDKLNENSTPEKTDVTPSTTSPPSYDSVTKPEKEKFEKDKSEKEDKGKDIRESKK
UniProt P08104, whole entry: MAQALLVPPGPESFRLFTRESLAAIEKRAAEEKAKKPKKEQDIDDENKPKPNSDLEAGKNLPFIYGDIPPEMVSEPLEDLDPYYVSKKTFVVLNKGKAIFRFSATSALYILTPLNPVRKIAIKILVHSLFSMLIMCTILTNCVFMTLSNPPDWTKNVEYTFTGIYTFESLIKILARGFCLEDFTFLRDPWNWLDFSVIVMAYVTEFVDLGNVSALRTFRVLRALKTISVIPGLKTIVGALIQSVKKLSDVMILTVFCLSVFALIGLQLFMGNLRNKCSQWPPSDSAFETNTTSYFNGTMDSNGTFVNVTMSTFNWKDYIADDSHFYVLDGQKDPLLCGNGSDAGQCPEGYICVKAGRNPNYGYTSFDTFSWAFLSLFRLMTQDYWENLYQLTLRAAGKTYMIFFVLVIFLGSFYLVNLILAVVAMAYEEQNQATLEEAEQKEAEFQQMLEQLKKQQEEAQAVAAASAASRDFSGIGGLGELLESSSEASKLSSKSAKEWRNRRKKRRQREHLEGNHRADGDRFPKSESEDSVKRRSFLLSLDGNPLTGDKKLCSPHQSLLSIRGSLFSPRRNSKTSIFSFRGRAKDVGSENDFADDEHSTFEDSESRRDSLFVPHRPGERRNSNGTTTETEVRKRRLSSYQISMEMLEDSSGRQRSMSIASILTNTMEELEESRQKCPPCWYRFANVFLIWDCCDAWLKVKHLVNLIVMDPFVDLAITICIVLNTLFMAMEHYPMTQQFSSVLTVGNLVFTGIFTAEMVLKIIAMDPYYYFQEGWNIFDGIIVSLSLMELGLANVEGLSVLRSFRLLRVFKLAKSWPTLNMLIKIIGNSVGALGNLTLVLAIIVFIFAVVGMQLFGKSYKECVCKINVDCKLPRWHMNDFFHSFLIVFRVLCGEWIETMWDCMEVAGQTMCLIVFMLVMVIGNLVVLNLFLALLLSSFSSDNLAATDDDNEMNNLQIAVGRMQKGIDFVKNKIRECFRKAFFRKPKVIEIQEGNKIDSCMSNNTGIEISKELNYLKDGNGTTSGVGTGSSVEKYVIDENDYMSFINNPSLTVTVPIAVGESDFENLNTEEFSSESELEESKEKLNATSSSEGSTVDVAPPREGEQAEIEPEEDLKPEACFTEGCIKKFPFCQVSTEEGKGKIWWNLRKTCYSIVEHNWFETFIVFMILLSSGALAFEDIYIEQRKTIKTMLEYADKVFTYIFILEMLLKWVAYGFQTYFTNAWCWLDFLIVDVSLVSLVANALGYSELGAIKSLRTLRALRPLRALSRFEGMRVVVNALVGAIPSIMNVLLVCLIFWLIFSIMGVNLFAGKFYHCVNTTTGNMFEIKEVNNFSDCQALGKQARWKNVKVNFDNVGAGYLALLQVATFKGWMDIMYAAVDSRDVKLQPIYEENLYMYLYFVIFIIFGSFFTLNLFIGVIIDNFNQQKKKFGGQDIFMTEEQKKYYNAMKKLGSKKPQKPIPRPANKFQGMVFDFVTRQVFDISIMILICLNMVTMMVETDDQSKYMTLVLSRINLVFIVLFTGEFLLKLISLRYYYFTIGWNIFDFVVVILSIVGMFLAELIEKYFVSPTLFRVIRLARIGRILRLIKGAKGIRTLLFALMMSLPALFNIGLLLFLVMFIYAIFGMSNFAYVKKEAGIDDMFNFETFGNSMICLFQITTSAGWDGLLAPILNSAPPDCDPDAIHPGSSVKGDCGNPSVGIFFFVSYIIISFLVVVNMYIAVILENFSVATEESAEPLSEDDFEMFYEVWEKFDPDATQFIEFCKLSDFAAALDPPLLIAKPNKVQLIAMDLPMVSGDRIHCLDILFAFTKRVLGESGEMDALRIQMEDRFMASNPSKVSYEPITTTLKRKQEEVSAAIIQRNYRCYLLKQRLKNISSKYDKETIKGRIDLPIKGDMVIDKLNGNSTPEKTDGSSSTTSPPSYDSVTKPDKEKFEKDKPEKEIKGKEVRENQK

## COc1ccc(OCC(O)CN2CCC(N(C(=O)c3ccccc3)c3ccc(F)cc3)CC2)cc1 (stereo not drawn)
Cytochrome P450 2D6
  Ki: 1000 nM
[1]
  IC50: 194 nM

## COc1ccc(OCC(O)CN2CCC(N(C(=O)c3ccc(Cl)cc3)c3ccccc3)CC2)cc1 (stereo not drawn)
Cytochrome P450 2D6
  Ki: 1000 nM
[1]
  IC50: 228 nM

## COc1ccc(OCC(O)CN2CCC(N(C(=O)c3ccc(Cl)cc3)c3ccc(F)cc3)CC2)cc1 (stereo not drawn)
Cytochrome P450 2D6
  Ki: 2000 nM
[1]
  IC50: 214 nM

## COc1ccc(OCC(O)CN2CCC(N(C(=O)c3ccccc3)c3ccccc3)CC2)cc1 (stereo not drawn)
Cytochrome P450 2D6
  Ki: 2000 nM
[1]
  IC50: 261 nM

From ChEMBL document CHEMBL1147532, “The design, preparation and SAR of novel small molecule sodium (Na(+)) channel blockers” (Bioorg Med Chem Lett, 2004)
